By UniProt entry, the sequences of proteins in these tests, tags left out.
UniProt P05177, whole entry: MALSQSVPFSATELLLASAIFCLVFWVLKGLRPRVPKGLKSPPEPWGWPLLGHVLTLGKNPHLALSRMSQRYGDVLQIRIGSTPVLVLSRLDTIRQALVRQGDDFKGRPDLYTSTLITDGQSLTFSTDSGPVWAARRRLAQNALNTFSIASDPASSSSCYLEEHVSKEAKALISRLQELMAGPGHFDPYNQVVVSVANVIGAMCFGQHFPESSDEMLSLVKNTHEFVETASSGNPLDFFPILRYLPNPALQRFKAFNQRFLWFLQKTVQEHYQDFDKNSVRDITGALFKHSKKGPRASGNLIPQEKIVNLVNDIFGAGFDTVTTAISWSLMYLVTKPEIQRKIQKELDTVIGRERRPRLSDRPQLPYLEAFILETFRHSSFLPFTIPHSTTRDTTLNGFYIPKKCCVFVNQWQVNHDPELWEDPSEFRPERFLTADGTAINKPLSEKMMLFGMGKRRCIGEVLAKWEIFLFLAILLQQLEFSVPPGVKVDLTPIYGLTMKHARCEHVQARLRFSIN

According to ChEMBL document CHEMBL3600322, “Phenoxymethyl 1,3-oxazoles and 1,2,4-oxadiazoles as potent and selective agonists of free fatty acid receptor 1 (GPR40)” (Bioorg Med Chem Lett, 2015):

Target: CYP1A2 (Homo sapiens, UniProt P05177)
Experiment: in vitro

Compound: O=c1cc(-c2ccccc2)oc2c1ccc1ccccc12 [ALPHA-NAPHTHOFLAVONE]
- inhibition at 4 µM: 99.2%
